We go through three compounds from ChEMBL document CHEMBL1140914, “Synthesis and in vitro and in vivo evaluation of 18F-labeled positron emission tomography (PET) ligands for imaging the vesicular acetylcholine transporter” (J Med Chem, 2009).

Structures are written as SMILES.

This test can be described thus: Selectivity ratio of Ki for human vesicular acetylcholine transporter to Ki for sigma1 receptor in guinea pig brain membrane. It counts as cell membranes.

`O=C(c1ccc(F)cc1)C1CCN([C@@H]2Cc3ccccc3C[C@H]2O)CC1` (racemic): the Ratio Ki is 71.

On to `O=C(c1ccc(F)cc1)C1CCN([C@@H]2Cc3ccccc3C[C@H]2O)CC1` (stereo in doubt; (-)-9e), for which the Ratio Ki came to 160.

With `O=C(c1ccc(F)cc1)C1CCN([C@@H]2Cc3ccccc3C[C@H]2O)CC1` (stereo in doubt; (+)-9e), the Ratio Ki came out at 1.7.
